Molecular target: Bifunctional epoxide hydrolase 2 (Homo sapiens, UniProt P34913)
Experiment: Inhibition of sEH (unknown origin) using PHOME as substrate after 40 mins by fluorescence photometric method

Protein sequences, listed by entry. Tags and fused reporters are not part of them.
UniProt P34913, whole entry: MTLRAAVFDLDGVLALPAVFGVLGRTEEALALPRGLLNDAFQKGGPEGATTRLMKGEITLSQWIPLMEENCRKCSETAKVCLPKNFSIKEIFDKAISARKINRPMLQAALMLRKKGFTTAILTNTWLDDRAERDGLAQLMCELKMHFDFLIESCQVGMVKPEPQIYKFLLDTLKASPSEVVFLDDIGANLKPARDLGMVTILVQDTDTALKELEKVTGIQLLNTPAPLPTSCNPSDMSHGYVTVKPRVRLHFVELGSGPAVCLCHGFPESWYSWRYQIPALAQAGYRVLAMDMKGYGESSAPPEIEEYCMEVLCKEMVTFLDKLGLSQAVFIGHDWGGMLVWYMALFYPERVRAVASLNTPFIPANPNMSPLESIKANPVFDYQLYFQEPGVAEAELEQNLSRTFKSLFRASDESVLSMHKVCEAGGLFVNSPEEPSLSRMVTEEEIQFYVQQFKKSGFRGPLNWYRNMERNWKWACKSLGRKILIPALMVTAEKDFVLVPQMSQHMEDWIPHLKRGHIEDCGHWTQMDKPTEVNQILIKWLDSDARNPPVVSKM

IC50: 7.8 nM
SMILES: CCCCOC(=O)CCCCCCCCCCCNC(=O)NC12CC3CC(CC(C3)C1)C2
